# Assay results as given in patent US5888763A, “Peptides specific for the first Crk-SH3 domain” (The Rockefeller University, priority 1994, dated 1999).
# Chains of the proteins cited; added tags and fusions are not shown. Residues count along the entry.
# UniProt Q64010, 132-192 limits assumed: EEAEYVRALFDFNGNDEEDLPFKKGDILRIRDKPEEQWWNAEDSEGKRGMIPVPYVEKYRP
# UniProt P06241, 82-143 limits assumed: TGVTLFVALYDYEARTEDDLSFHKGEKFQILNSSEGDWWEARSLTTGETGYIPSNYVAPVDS
# Assays:
# Assay in all cases: SH3 filter binding assay: blotted SH3 domains probed with 35S-gst-4-12
# Conditions in all cases: 35S-labeled probe
# [1] = target: T1, p85α/PI3-Kinase SH3 domain (Homo sapiens)
# T1 construct: The PI3Kp85-a-SH3 domain was a gift of L. Cantley
# Description: (§1) SH3 filter binding assay. The SH3 filter binding assay was carried out as described previously (Reichman, 1993, Cell Growth Diff. 3:451). Briefly, about 30 pmoles of each gst-fusion peptide or gst-fusion SH3 domain were blotted and incubated at room temperature over night in a buffer (TBS, 0.05% Tween-20, 1 mM DTT, 2% BSA, 1% ovalbumin) to allow renaturation. The blot with the gst-fusion peptides was probed with 1-2 μg/ml ^35 S-labeled gst-fusion CrkSH3(1) domain, whereas the blot that contains the SH3 domains was probed with ^35 S-labeled CB-1/gst-4-12 fusion peptide at 1-2 μg/ml. The blots were washed 3 times with TBS, 0.05% Tween-20, 1 mM DTT, 0.2% BSA, 0.1% ovalbumin, and bound probe was visualized by autoradiography.
# first CrkSH3 domain = target: T2, first CrkSH3 domain (Mus musculus, UniProt Q64010)
# T2 construct: probed with 1-2 μg/ml ^35 S-labeled gst-fusion CrkSH3(1) domain; made in house; host or cells: bacteria
# Description: as §1
# α-Spectrin SH3 domain = tested on: α-Spectrin SH3 domain
# Description: as §1
# Grb2 SH3 domain = tested on: Grb2 SH3 domain
# Description: as §1
# Fyn SH3 domain = target: T3, Fyn SH3 domain (Homo sapiens, UniProt P06241)
# T3 construct: made in house; host or cells: bacteria
# Description: as §1
molecule,measurement,setting,value
gst-4-12: 9 amino acid gst-fusion peptide derived from CB-1 (protein) MSPILGYWKIKGLVQPTRLLLEYLEEKYEEHLYERDEGDKWRNKKFELGLEFPNLPYYIDGDVKLTQSMAIIRYIADKHNMLGGCPKERAEISMLEGAVLDIRYGVSRIAYSKDFETLKVDFLSKLPEMLKMFEDRLCHKTYLNGDHVTHPDFMLYDALDVVLYMDPMCLDAFPKLVCFKKRIEAIPQIDKYLKSSKYIAWPLQGWQATFGGGDHPPKPPALPPKKR,binding to p85α/PI3-Kinase SH3 domain,[1],weak interaction
same,binding to first CrkSH3 domain,first CrkSH3 domain,bound strongly
same,binding to α-Spectrin SH3 domain,α-Spectrin SH3 domain,weak interaction
same,binding to Grb2 SH3 domain,Grb2 SH3 domain,weak interaction
same,binding to Fyn SH3 domain,Fyn SH3 domain,weak interaction
